In patent US8883964B2, “Compositions comprising modified collagen and uses therefor” (The Johns Hopkins University, priority 2004, dated 2014):

Experiments:
[1] = biological target: collagen (acid soluble, bovine type I) (bovine) (UniProt P02453); experiment: retention of added type I collagen in the photopolymerized hydrogel after one week in PBS; hydroxyproline assay; no increase at 0.5 mg/mL
[2] = biological target: collagen secreted by encapsulated chondrocytes (mostly type II collagen) (calves (chondrocytes isolated from 5- to 8-week-old calves)) (UniProt P02459); experiment: cell-based or functional assay
[3] = biological target: collagen (acid soluble, bovine type I) (bovine) (UniProt P02453); experiment: TEM of reconstituted type I collagen fibers incubated with NP-3 at 25 °C

collagen concentration at which retention reached saturation [1]	collagen content of the hydrogel after one week of chondrocyte culture, 2% CMP/PEODA against 1% CMP/PEODA [2]	ratio of collagen content, PEODA gel to 2% CMP/PEODA gel [2]	NP-3 particles per unit area, gap regions (dark bands) relative to overlap regions (light bands) [3]	Substance
0.2 mg/mL	37%	2 fold (1:2)		CMP/PEODA hydrogel: ACRL-PEG-(Pro-Hyp-Gly)7-Tyr photopolymerized with poly(ethylene oxide) diacrylate
			2 fold	NP-3: gold nanoparticle functionalized with Cys-(Pro-Hyp-Gly)7
